Data published in patent publication US8946439B2, “Amide compounds, compositions and uses thereof” (Evotec AG, priority 2008, dated 2015).

Sequences of proteins named here, by UniProt entry; tags and fusion partners are left off.
UniProt P56373, whole entry: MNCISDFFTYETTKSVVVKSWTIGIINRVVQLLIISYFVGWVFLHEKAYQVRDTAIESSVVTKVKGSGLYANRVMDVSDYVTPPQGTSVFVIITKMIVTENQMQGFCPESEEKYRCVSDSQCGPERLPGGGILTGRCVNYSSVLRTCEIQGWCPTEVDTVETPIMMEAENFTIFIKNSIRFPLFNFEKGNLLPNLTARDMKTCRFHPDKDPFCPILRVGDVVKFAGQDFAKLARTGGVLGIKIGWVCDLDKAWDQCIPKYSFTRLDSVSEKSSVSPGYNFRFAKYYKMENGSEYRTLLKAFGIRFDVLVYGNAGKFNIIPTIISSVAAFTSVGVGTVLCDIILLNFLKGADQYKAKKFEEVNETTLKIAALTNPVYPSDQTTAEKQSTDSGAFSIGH
UniProt Q9UBL9, whole entry: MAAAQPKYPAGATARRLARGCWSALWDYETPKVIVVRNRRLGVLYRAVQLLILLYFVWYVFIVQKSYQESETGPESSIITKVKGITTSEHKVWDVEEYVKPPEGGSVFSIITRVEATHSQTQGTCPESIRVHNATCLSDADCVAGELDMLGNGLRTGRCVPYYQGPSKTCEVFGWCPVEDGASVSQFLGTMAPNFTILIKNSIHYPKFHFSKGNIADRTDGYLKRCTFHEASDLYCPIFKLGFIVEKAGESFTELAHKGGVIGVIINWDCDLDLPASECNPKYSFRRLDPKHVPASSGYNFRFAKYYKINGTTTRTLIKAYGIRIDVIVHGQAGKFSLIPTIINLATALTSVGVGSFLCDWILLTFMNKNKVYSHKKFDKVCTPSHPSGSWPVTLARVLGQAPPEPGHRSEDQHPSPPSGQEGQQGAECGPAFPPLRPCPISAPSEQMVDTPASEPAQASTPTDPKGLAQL

Columns and labels:
[1] = target: hP2X3 (Homo sapiens, UniProt P56373); test: Calcium uptake assay (P2X antagonist assay), P2X3 homomer
[2] = target: hP2X2/3H (Homo sapiens, UniProt P56373+Q9UBL9); test: Calcium uptake assay (P2X antagonist assay), P2X2/3 heteromer

Compound	IC50 ([1]; read-out: IC50 hP2X3 (nM), Ca Influx, calcium uptake assay) [nM]	IC50 ([2]; read-out: IC50 hP2X2/3H (nM), Ca Influx, calcium uptake assay) [nM]	IC50 ([1]; read-out: IC50 hP2X3, Ca influx (calcium uptake assay)) [nM]	IC50 ([2]; read-out: IC50 hP2X2/3H, Ca influx (calcium uptake assay)) [nM]
Cc1ccc(-c2cc(C(=O)NCc3ccc(C(F)(F)F)nc3)cc(S(C)(=O)=O)c2)nc1	< 100	100 to 500	–	–
Cc1ccc(CNC(=O)c2cc(-c3ccc(Br)cc3)cc(S(C)(=O)=O)c2)cn1	–	–	100 to 500	501 to 1000

Like-named read-outs stand apart in the source and are kept apart here.
